Reference: patent publication US4914086A, “Method for treating African human and veterinary trypanosomiases” (priority 1987, dated 1990)

Assay: in vivo
Conditions: mouse, ip, 400 mg/kg
Description: Swiss-Webster (25-30 g) mice were used throughout. In the EATRO 110 model, groups of 100 mice were infected (10^5 trypanosomes/mouse) and the infection was allowed to develop 24 hours before commencing therapy. Animals were divided into groups of 5 before treatment. Cured animals survived >30 days beyond deaths of controls. All compounds were administered by i.p. injection.

Work on `O=c1[nH]cnc2c([C@@H]3O[C@H](CO)[C@@H](O)[C@H]3O)c[nH]c12` [9-DINO, 7-beta-D-ribofuranosyl-4-oxo-3H, 5H-pyrrolo (3,2-d) pyrimidine] yielded a mortality of 40%.
